Earlier results, collected in patent publication US8875704B2, “Nasal administration” (priority 2007, dated 2014).

Columns and labels:
[1] = intranasal, dimethyl beta cyclodextrin as absorption enhancer, rabbits; cited from earlier work
[2] = intranasal, particularly after multiple administrations; cited from earlier work
[3] = powders in a starch formulation, rabbits; cited from earlier work

insulin
peak plasma concentration Cmax, powder versus liquid formulation [1]: greater | bio-availability of powder formulations with longer residence times [2]: reduced bio-availability | bio-availability, deposition posterior to the nasal valve versus anterior deposition [3]: lower bio-availability
